# Measurements published in patent publication US11866449B2, “Crystalline polymorphs of a muscarinic acetylcholine receptor agonist” (NSC Therapeutics GmbH, priority 2016, dated 2024).
# Experiments:
# [1] = Compound A Form II 10, 20, 30, 35 mg once daily for 4 days; healthy male volunteers
# clinical = details: male, human, plasma, oral
Compound,Plasma concentrations versus dose [1],half-life (clinical)
CCC1SC2(CCNCC2)NC1=O (stereo not drawn) [NGX292],increased dose-proportionally,
"CC[C@@H]1SC2(CCN(C)CC2)NC1=O [Compound A, (S)-2-ethyl-8-methyl-1-thia-4,8-diazaspiro[4.5]decane-3-one]",increased dose-proportionally,424 to 454 min
